The record followed here is patent US7919495B2, “Pyridyl non-aromatic nitrogen-containing heterocyclic-1-carboxylate compound” (Astellas Pharma, Inc., priority 2005, dated 2011).

Sequences of proteins named here, by UniProt entry; tags and fusion partners are left off.
UniProt O00519, whole entry, looked up: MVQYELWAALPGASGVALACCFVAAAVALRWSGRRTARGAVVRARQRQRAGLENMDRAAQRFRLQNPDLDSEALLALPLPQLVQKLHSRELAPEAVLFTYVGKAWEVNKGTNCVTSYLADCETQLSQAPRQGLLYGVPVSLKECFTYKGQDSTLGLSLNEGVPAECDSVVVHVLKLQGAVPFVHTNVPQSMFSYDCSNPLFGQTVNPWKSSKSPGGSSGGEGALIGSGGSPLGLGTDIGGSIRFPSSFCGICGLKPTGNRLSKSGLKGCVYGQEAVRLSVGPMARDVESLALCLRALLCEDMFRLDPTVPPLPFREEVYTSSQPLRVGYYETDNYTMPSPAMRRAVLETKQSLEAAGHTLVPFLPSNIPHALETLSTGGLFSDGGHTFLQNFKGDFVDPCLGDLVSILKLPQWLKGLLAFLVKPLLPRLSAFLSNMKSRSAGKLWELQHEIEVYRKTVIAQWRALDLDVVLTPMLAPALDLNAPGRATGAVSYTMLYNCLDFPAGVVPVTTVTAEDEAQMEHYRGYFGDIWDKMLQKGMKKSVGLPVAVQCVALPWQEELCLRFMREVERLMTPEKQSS
UniProt P97612, whole entry, looked up: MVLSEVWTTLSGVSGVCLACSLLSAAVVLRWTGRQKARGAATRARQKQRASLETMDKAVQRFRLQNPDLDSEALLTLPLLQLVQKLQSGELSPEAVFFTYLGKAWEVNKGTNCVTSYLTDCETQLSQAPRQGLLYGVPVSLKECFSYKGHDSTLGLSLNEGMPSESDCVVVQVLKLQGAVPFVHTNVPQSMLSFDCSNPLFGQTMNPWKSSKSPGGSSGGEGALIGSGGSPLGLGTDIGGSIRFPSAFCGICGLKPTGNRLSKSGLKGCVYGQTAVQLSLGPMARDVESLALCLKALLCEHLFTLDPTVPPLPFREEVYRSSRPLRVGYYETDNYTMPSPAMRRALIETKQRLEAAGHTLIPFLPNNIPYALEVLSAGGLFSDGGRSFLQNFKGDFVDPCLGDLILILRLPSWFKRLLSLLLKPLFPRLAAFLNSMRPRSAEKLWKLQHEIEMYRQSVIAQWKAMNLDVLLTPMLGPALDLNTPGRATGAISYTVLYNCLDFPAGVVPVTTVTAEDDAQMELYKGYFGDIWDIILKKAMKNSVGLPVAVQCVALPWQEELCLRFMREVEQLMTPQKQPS

Usually IC50 stands for the point on the concentration scale where inhibition reaches its midpoint.

Assay [1] deals with FAAH in human bladder epithelial cancer-derived cell line 5678 cells (Homo sapiens, UniProt O00519). Description: Screening for FAAH activity-inhibiting substance with human bladder epithelial cancer-derived cell (IC50, Table 64). The class given is cell-based. As to conditions: read-out: cell FAAH IC50. As to the method: Screening for FAAH Activity-Inhibiting Substance with Human Bladder Epithelial Cancer-Derived Cell
(1) Screening for FAAH Activity-Inhibiting Substance:
Human bladder epithelial cancer-derived cell line […] cells (HTB-9; ATCC) were seeded on a 48-well cell culture plate in an amount of 1×10^5 cell/well, using 10% fetal bovine serum (HyClone)-containing RPMI1640 medium (Invitrogen). After incubated at 37° C. for at least 12 hours, the cells were washed with 400 μl/well of a buffer (Hank's Balanced Salt Solution, 20 mM Hepes-NaOH (pH 7.4)). A test substance dissolved in DMSO was added to a substrate solution (the above buffer containing 3 μCi/ml radiolabeled anandamide (Anandamide [ethanolamine 1-3H]) and 10 μM anandamide) so as to have a concentration of from 0.003 nM to 30 nM. As a control, DMSO alone was added. 100 μl/well of the substrate solution was added to the above cells, and incubated in a CO2 incubator at 37° C. for 30 minutes. Next, the cell culture plate was transferred onto ice, and the substrate solution was removed by suction; and 75 μl/well of a cytolytic solution (the above buffer containing 0.5% Triton X-100, and 10 μM of FAAH-inhibitory activity-having compound, 3′-carbamoylbiphenyl-3-yl cyclohexylcarbamate (URB597; Cayman chemical; Kathuria et al., Nature Med., Vol. 9, pp. 76-81, 2003)) was added thereto, followed by stirring. The resulting cell lysate in every well was individually transferred into a 1.5 ml sample tube, to which was added 150 μl of 1:1 (by volume) chloroform/methanol solution, followed by vortexing. This was centrifuged (15000 rpm, 2 minutes), whereby the decomposed product, ethanolamine (ethanolamine 1-^3H) was separated in the upper layer (water/methanol layer) and the unreacted radiolabeled anandamide was in the lower layer (chloroform layer). 25 μl of the upper layer was transferred into a 96-well organic solvent-resistant white microplate (PicoPlate-96; Perkin Elmer), 150 μl of Microscint-20 (Perkin Elmer) was added thereto, and this was measured with a microplate scintillation counter (TopCount™; Beckman). As compared with the control, the substance that gave a decreased value was selected as an FAAH activity-inhibiting substance.
(2) Measurement of IC50 Value of FAAH Activity-Inhibiting Substance:
A test compound dissolved in DMSO to have a concentration of 10 mM was dissolved in the substrate solution so as to have a varying concentration of from 0.003 nM to 30 μM. According to the method mentioned above, the compound was analyzed for its influence on FAAH activity. As a negative control, DMSO was used. As a positive control, URB597 was added to the substrate solution to have a concentration of 10 μM. Based on the measured value of the positive control, 0%, and on the measured value of the negative control, 100%, IC50 value of the test substance was obtained.

Assay [2] deals with L5/L6 spinal nerve-ligated rat. Description: Anti-allodynia effect in L5/L6 spinal nerve-ligated rat (neuropathic pain model), von Frey hair test. As to conditions: 10 mg/kg oral administration, 60 minutes before response threshold measurement; operated paw 0%, non-operated paw 100% of the solvent group.
The target of assay [3] is FAAH (rat brain homogenate) (Rattus norvegicus, UniProt P97612). As to conditions: read-out: IC50 (FAAH activity), radiolabeled anandamide substrate, 1 hour.
The subject of assay [4] is CPA-induced urinary frequency in rat. Briefly: Effect of compound on cyclophosphamide (CPA)-induced urinary frequency in rat. The class given is in vivo. As to conditions: oral administration, Wistar female rats 2 days after CPA 100 mg/kg i.p.

`NC(=O)COc1cccc(C2CCN(C(=O)Oc3cccnc3)CC2)c1`: the 50% inhibitory concentration (IC50) in assay [1] is 0.06 nM.

As for `O=C(Oc1cccnc1)N1CCN(CCc2ccccc2)CC1`, in assay [1], the IC50 was 0.18 nM.

As to `O=C(O)c1cncc(OC(=O)N2CCC(CCc3cccc(Cl)c3)CC2)c1`, the IC50 in assay [1] was determined as 0.37 nM.

For the compound `O=C(Oc1cccnc1)N1CCC(/C=C/c2ccccc2)CC1`, the IC50 in assay [1] was found to be 0.15 nM.

With `NC(=O)c1cccc(OCCCC2CCN(C(=O)Oc3cccnc3)CC2)c1`, in assay [1], the IC50 came out at 0.078 nM.

For the compound `O=C(Oc1cccnc1)N1CCC(COCc2ccccc2)CC1`, the IC50 in assay [1] turned out to be 0.012 nM.

With `O=C(Oc1cccnc1)N1CCN(c2ccccc2)CC1`, the IC50 in assay [1] was 0.04 nM.

Consider `O=C(c1ccccc1)C1CCN(C(=O)Oc2cccnc2)CC1`, for which the half-maximal inhibitory concentration (IC50) in assay [1] amounted to 0.2 nM.

On to `NC(=O)c1ccc(OCCCC2CCN(C(=O)Oc3cccnc3)CC2)cc1`, for which the IC50 in assay [1] is 0.095 nM.

In the case of `O=C(Oc1cccnc1)N1CC=C(c2ccccc2)CC1`, in assay [1], the IC50 was found to be 0.028 nM.

As to `O=C(NCCc1ccccc1)C1CCN(C(=O)Oc2cccnc2)CC1`, the IC50 in assay [1] was determined as 0.6 nM.

Regarding `CNC(=O)c1ccc(OCCCC2CCN(C(=O)Oc3cccnc3)CC2)cc1`, in assay [1], the IC50 was found to be 0.099 nM.

Consider `N#Cc1ccc(OCCCC2CCN(C(=O)Oc3cccnc3)CC2)cc1`, for which, in assay [1], the IC50 is 0.052 nM.

For the compound `O=C(NCCCO)c1cncc(OC(=O)N2CCC(CCc3ccccc3)CC2)c1`, in assay [1], the half-maximal inhibitory concentration (IC50) worked out at 0.33 nM.

Consider `O=C(Oc1cccnc1)N1CCC(c2cccc(OCc3ccccc3)c2)CC1`, for which the IC50 in assay [1] came to 0.081 nM.

For `O=C(Oc1cccnc1)N1CCN(CCCCCc2ccccc2)CC1`, the half-inhibitory concentration (IC50) in assay [1] worked out at 0.077 nM.

With `CN(C)C(=O)c1ccc(OCCCC2CCN(C(=O)Oc3cccnc3)CC2)cc1`, the half-maximal inhibitory concentration (IC50) in assay [1] is 0.26 nM.

For `O=C(Oc1cccnc1)N1CCC(Oc2ccc(OCC3CCCCC3)cc2)CC1`, in assay [1], the IC50 turned out to be 0.67 nM.

For `O=C(O)c1cncc(OC(=O)N2CCC(CCC3CCCCC3)CC2)c1`, the IC50 in assay [1] was 0.16 nM.

As to `O=C(CCCCCc1ccccc1)NC1CCN(C(=O)Oc2cccnc2)CC1`, the IC50 in assay [1] turned out to be 0.11 nM.

With `NC(=O)c1ccc(OCCC2CCN(C(=O)Oc3cccnc3)CC2)cc1`, in assay [1], the IC50 turned out to be 0.21 nM.

Take `NC(=O)c1cncc(OC(=O)N2CCC(CCc3cccc(F)c3)CC2)c1`: the IC50 in assay [1] was determined as 0.058 nM.

For the compound `Cn1c(CCCC2CCN(C(=O)Oc3cccnc3)CC2)nc2ccccc21`, the IC50 in assay [1] worked out at 0.057 nM.

As for `COc1cccc(CCC2CCN(C(=O)Oc3cncc(C(N)=O)c3)CC2)c1`, the IC50 in assay [1] turned out to be 0.04 nM.

For `O=C(O)c1cncc(OC(=O)N2CCC(CCc3cccc(Br)c3)CC2)c1`, the IC50 in assay [1] was found to be 0.65 nM.

On to `O=C(NCc1ccccc1)C1CCN(C(=O)Oc2cccnc2)CC1`, for which, in assay [1], the IC50 was 0.13 nM.

For `O=C(Oc1cncc(Cl)c1)N1CCN(CCc2ccccc2)CC1`, the IC50 in assay [1] worked out at 0.44 nM.

With `NC(=O)c1ccc(/C=C/C2CCN(C(=O)Oc3cccnc3)CC2)cc1`, the 50% inhibitory concentration (IC50) in assay [1] was 0.41 nM.

Turning to `O=C(/C=C/c1ccccc1)N1CCN(C(=O)Oc2cccnc2)CC1`, the 50% inhibitory concentration (IC50) in assay [1] was found to be 0.58 nM. Besides, in assay [2], the anti-allodynia potency turned out to be 74%.

Regarding `O=C(Oc1cccnc1)N1CCN(c2ccc(OCc3ccccc3)cc2)CC1`, in assay [1], the IC50 amounted to 0.046 nM.

For `O=C(Oc1cccnc1)N1CCC(COC/C=C/c2ccccc2)CC1`, the 50% inhibitory concentration (IC50) in assay [1] amounted to 0.066 nM.

Regarding `O=C(NCCO)c1cncc(OC(=O)N2CCC(CCc3ccccc3)CC2)c1`, the IC50 in assay [1] came to 0.24 nM.

In the case of `O=C(O)c1cncc(OC(=O)N2CCC(CCc3ccccc3)CC2)c1`, the concentration for half-maximal inhibition (IC50) was determined as 0.89 nM in assay [1] and 0.37 nM in assay [3]. In addition, in assay [4], the “effective dose (increase of reduced effective bladder capacity)” value is 1 mg/kg.

For `O=C(Oc1cccnc1)N1CCC(Cc2ccccc2)CC1`, in assay [1], the IC50 came out at 0.1 nM.

With `O=C(Oc1cccnc1)N1CCC(CCOCc2ccccc2)CC1`, in assay [1], the IC50 worked out at 0.063 nM.

On to `N#Cc1cccc(CCC2CCN(C(=O)Oc3cncc(C(N)=O)c3)CC2)c1`, for which the IC50 in assay [1] worked out at 0.062 nM.

Regarding `CCOC(=O)COc1cccc(C2CCN(C(=O)Oc3cccnc3)CC2)c1`, the IC50 in assay [1] was 0.071 nM.

Regarding `NC(=O)c1cccc(CCC2CCN(C(=O)Oc3cncc(C(N)=O)c3)CC2)c1`, the 50% inhibitory concentration (IC50) in assay [1] was 0.5 nM; in assay [3] it was 0.54 nM. Also, the “effective dose (increase of reduced effective bladder capacity)” value in assay [4] is given as 1 mg/kg.

On to `O=C(NCCO)c1cncc(OC(=O)N2CCC(CCc3cccc(Cl)c3)CC2)c1`, for which, in assay [1], the IC50 amounted to 0.12 nM.

As to `NC(=O)c1ccc(COC2CCN(C(=O)Oc3cccnc3)CC2)cc1`, the IC50 in assay [1] was determined as 0.41 nM.

For `O=C(Oc1cccnc1)N1CCC(c2ccc(F)cc2)CC1`, the IC50 in assay [1] is 0.033 nM.

Take `O=C(Oc1cccnc1)N1CCC(OCc2ccccc2)CC1`: the IC50 in assay [1] is 0.044 nM.

As to `O=C(Oc1cccnc1)N1CCC(Oc2ccc(O)cc2)CC1`, in assay [1], the IC50 is 0.58 nM.

Consider `O=C(O)c1cncc(OC(=O)N2CCC(CCc3ccccc3Cl)CC2)c1`, for which the IC50 in assay [1] came out at 0.43 nM.

On to `O=C(NCCCCc1ccccc1)C1CCN(C(=O)Oc2cccnc2)CC1`, for which the IC50 in assay [1] turned out to be 0.37 nM.

Regarding `O=C(Oc1cccnc1)N1CCC(Oc2ccccc2)CC1`, the half-maximal inhibitory concentration (IC50) in assay [1] amounted to 0.23 nM.

Turning to `O=C(CCc1ccccc1)N1CCN(C(=O)Oc2cccnc2)CC1`, the half-inhibitory concentration (IC50) in assay [1] was found to be 0.35 nM.

As to `N#Cc1ccccc1CCC1CCN(C(=O)Oc2cncc(C(N)=O)c2)CC1`, in assay [1], the 50% inhibitory concentration (IC50) is 0.085 nM.

As for `COC(=O)c1cncc(OC(=O)N2CCC(CCC3CCCCC3)CC2)c1`, the IC50 in assay [1] amounted to 0.48 nM.

As to `NC(=O)c1ccc(CCC2CCN(C(=O)Oc3cccnc3)CC2)cc1`, the concentration for half-maximal inhibition (IC50) in assay [1] worked out at 0.12 nM.

For `O=C(O)c1cncc(OC(=O)N2CCC(CCCCc3ccccc3)CC2)c1`, the IC50 in assay [1] is 0.031 nM.

For `O=C(Oc1cccnc1)N1CCC(COc2ccc3c(c2)OCO3)CC1`, in assay [1], the IC50 is 0.072 nM.

On to `NC(=O)c1cncc(OC(=O)N2CCC(CCC3CCCCC3)CC2)c1`, for which, in assay [1], the IC50 stood at 0.13 nM.

As for `CC(=O)C1(c2ccccc2)CCN(C(=O)Oc2cccnc2)CC1`, the IC50 in assay [1] worked out at 0.3 nM.

For the compound `NC(=O)c1cncc(OC(=O)N2CCC(CCc3ccccc3)CC2)c1`, the IC50 in assay [1] is 0.081 nM.

Take `O=C(Oc1cccnc1)N1CCC(/C=C\c2ccccc2)CC1`: in assay [1], the IC50 amounted to 0.081 nM.

As for `O=C(O)c1cncc(OC(=O)N2CCC(CCc3ccc(Cl)cc3)CC2)c1`, in assay [1], the IC50 was 0.36 nM.

On to `O=C(NCCO)c1cncc(OC(=O)N2CCC(CCc3cccc(F)c3)CC2)c1`, for which the half-maximal inhibitory concentration (IC50) in assay [1] is 0.39 nM.

On to `O=C(Oc1cncc(Br)c1)N1CCC(CCc2ccccc2)CC1`, for which the half-maximal inhibitory concentration (IC50) in assay [1] was 0.17 nM.

For the compound `O=C(Oc1cccnc1)N1CCC(O)(c2ccccc2)CC1`, in assay [1], the 50% inhibitory concentration (IC50) came to 0.69 nM.

`NC(=O)c1ccccc1OCCCC1CCN(C(=O)Oc2cccnc2)CC1`: in assay [1], the 50% inhibitory concentration (IC50) was found to be 0.052 nM.

Regarding `NC(=O)c1cncc(OC(=O)N2CCC(CCc3ccccc3F)CC2)c1`, the concentration for half-maximal inhibition (IC50) in assay [1] was determined as 0.048 nM.

Consider `O=C(O)c1cncc(OC(=O)N2CCC(CCc3ccc(Br)cc3)CC2)c1`, for which, in assay [1], the IC50 was determined as 0.47 nM.

Consider `O=C(Oc1cccnc1)N1CCC(Oc2ccc3c(c2)OCO3)CC1`, for which the half-inhibitory concentration (IC50) in assay [1] amounted to 0.35 nM.

For the compound `O=C(OCc1ccccc1)N1CCN(C(=O)Oc2cccnc2)CC1`, in assay [1], the half-maximal inhibitory concentration (IC50) worked out at 0.093 nM.

`O=C(O)c1cncc(OC(=O)N2CCC(/C=C/c3ccccc3)CC2)c1`: the IC50 in assay [3] worked out at 0.65 nM. Further, in assay [4], the “effective dose (increase of reduced effective bladder capacity)” value came to 1 mg/kg.

`O=C(Oc1cccnc1)N1CCC(Oc2cccc(OCC3CCCCC3)c2)CC1`: in assay [1], the IC50 stood at 0.3 nM.
